Yeast mating assay 2: variants of the scFv Ab-91

Source: Engelhart et al. 2022 (doi:10.1038/s41597-022-01779-4), MIT Lincoln Laboratory and A-Alpha Bio; data file from the FLAb repository.

Target peptide (SARS-CoV-2 spike, HR2 region): PDVDLGDISGINAS

Each scFv is VL, a 15-residue (Gly4Ser)3 linker, VH, as in the parent Ab-91, and differs from it in the CDRs of the heavy chain only.
VL: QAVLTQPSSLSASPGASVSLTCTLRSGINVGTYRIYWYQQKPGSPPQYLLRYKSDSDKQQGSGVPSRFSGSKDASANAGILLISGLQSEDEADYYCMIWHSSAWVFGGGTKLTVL
VH: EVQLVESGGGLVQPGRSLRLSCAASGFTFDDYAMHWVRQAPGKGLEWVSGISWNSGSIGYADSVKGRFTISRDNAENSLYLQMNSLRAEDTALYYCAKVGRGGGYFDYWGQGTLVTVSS

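Phage display of a naive human antibody library on the peptide gave the parent. Library AAYL51 holds single substitutions and randomly drawn double and triple substitutions in the CDRs. The scFvs were displayed on barcoded MATa yeast, the peptide on MATalpha yeast. After mating in shaken culture at 30 °C for 16 h, diploids were selected and their barcode pairs sequenced. Scores were corrected for input abundance and mapped to Kd with protein pairs of known affinity run in the same pool. The assay was run in three technical replicates.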

Changes read parent residue, position, new residue, counted from the first residue of the VH shown. The read-out is the apparent dissociation constant on a log10 scale (nM): the lower, the stronger. The mean shown is taken over the replicates in which the pair was detected. An entry "n.d." has no value in the source: the pair was not observed among the diploids in that replicate. This suggests poor binding but is not conclusive.

changes | log10 Kd (nM) by replicate | log10 Kd (nM), mean | signal with controls
S52Q R101T | 3.16 3.88 3.16 | 3.40 | 0 of 9
G56I I58R V64Y | n.d. n.d. 4.30 | 4.30 | 2 of 9 (4.36)
M34C S52D R101I | 3.34 3.63 2.75 | 3.24 | 1 of 9 (4.13)
D30G A61K G100V | 4.27 4.24 4.56 | 4.36 | 5 of 9 (4.46)
G50F S52F | n.d. n.d. n.d. | n.d. | 0 of 9
I51R Y60H A61T | n.d. n.d. 4.93 | 4.93 | 1 of 9 (4.85)
Y32L | n.d. 6.35 n.d. | 6.35 | 4 of 9 (5.31)
G50E N54Y | n.d. n.d. 3.91 | 3.91 | 1 of 9 (4.38)
F29V S52D D62G | n.d. 5.02 n.d. | 5.02 | 1 of 9 (3.57)
A33K S52P G102A | 4.51 n.d. n.d. | 4.51 | 1 of 9 (3.05)
D62G G100P | n.d. n.d. n.d. | n.d. | 1 of 9 (4.29)
F27C G56H R101M | n.d. n.d. n.d. | n.d. | 0 of 9
T28Q A33K D107N | 4.94 4.97 n.d. | 4.95 | 3 of 9 (4.45)
S55D R101Q | 4.07 4.01 3.79 | 3.96 | 5 of 9 (4.12)
D30Q S57E F106Q | 2.05 1.93 1.03 | 1.67 | 0 of 9
D31R I51M Y108I | 1.03 1.08 0.52 | 0.88 | 2 of 9 (4.83)
G50V A61N G100I | n.d. n.d. 4.93 | 4.93 | 1 of 9 (3.63)
M34I G100I | 3.59 4.39 3.22 | 3.74 | 0 of 9
R101G F106I Y108R | 4.79 4.90 n.d. | 4.85 | 0 of 9
S55M Y108T | 3.21 2.84 2.96 | 3.01 | 1 of 9 (4.31)
G26A G103F | n.d. n.d. n.d. | n.d. | 0 of 9
V64M Y105C D107N | n.d. n.d. n.d. | n.d. | 2 of 9 (4.80)
I58M D62I R101V | n.d. 4.16 2.87 | 3.52 | 0 of 9
D30L S63T G104P | n.d. n.d. 3.99 | 3.99 | 0 of 9
Y32I G100C G103C | 5.50 n.d. n.d. | 5.50 | 1 of 9 (2.80)
D31P N54A V99L | 5.16 5.15 4.72 | 5.01 | 4 of 9 (5.42)
T28F I58H F106V | 4.23 n.d. n.d. | 4.23 | 0 of 9
F27W D31S M34Y | n.d. n.d. n.d. | n.d. | 1 of 9 (4.30)
G26F T28D V99N | 4.89 n.d. n.d. | 4.89 | 1 of 9 (4.82)
G26F G50D N54V | n.d. n.d. n.d. | n.d. | 0 of 9
F27Y S52E | n.d. n.d. n.d. | n.d. | 1 of 9 (2.36)
D31Y I58E S63N | -0.27 -0.30 -1.06 | -0.54 | 0 of 9
S52A S55D G100W | 3.38 2.75 2.66 | 2.93 | 3 of 9 (4.34)
I58V D62V G102C | 1.52 1.64 1.37 | 1.51 | 1 of 9 (4.10)
D30K A61K V64P | 5.09 6.68 5.11 | 5.62 | 5 of 9 (5.48)
D31Y A33N D62T | n.d. 3.78 n.d. | 3.78 | 3 of 9 (4.24)
G26M K65A G102V | n.d. n.d. n.d. | n.d. | 0 of 9
K65R G100D Y105W | n.d. n.d. n.d. | n.d. | 0 of 9
H35T G102Q G103I | n.d. 4.10 n.d. | 4.10 | 3 of 9 (3.77)
G100N R101D | 1.11 1.12 0.69 | 0.97 | 6 of 9 (4.67)
H35G G59V A61W | n.d. n.d. n.d. | n.d. | 0 of 9
H35F K65W G100T | n.d. n.d. n.d. | n.d. | 2 of 9 (2.96)
A33H K65C | 5.02 5.03 4.92 | 4.99 | 0 of 9
G26M T28L G59V | n.d. n.d. n.d. | n.d. | 0 of 9

The first 5 entries again:

| changes | log10 Kd (nM) by replicate | log10 Kd (nM), mean | signal with controls |
|---|---|---|---|
| S52Q R101T | 3.16 3.88 3.16 | 3.40 | 0 of 9 |
| G56I I58R V64Y | n.d. n.d. 4.30 | 4.30 | 2 of 9 (4.36) |
| M34C S52D R101I | 3.34 3.63 2.75 | 3.24 | 1 of 9 (4.13) |
| D30G A61K G100V | 4.27 4.24 4.56 | 4.36 | 5 of 9 (4.46) |
| G50F S52F | n.d. n.d. n.d. | n.d. | 0 of 9 |

Nonspecific signal, from three strains lacking the peptide, appeared in 21% of pairings of library AAYL51, centred on 4.54 (5% of these signals below 3.26); values are not corrected for it. The control count says in how many pairings with the empty strains this scFv gave a signal, with their mean in brackets. In this assay the parent's reference entry averaged 1.86; its copy inside this library read 0.88.